Biological target: Aurora kinase B (Homo sapiens, UniProt Q96GD4)
Experiment: In Vitro Kinase Assay
Description: In vitro kinase assay of Aurora A, B, and C using Z-LYTE technology (Invitrogen) and ATP at Km apparent for each kinase.

Chains of the proteins cited; added tags and fusions are not shown.
UniProt Q96GD4, whole entry: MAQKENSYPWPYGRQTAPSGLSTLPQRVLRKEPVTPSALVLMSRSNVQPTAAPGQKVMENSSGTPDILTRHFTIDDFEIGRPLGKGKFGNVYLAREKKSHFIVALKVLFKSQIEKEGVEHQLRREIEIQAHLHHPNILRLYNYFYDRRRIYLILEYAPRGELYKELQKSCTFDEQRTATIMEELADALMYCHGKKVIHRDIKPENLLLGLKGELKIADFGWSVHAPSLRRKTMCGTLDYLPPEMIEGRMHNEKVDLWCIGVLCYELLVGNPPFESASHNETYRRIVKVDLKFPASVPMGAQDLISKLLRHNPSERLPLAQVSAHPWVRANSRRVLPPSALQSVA

With `CN1C(=O)c2ccccc2N(C)c2nc(Nc3ccc(N4CCC(O)CC4)cc3)ncc21` [Benzo[e]pyrimido[5,4-b][1,4]diazepin-6(11H)-one, 1] the IC50 was 18.4 nM.
